# Assay results as given in PubChem BioAssay AID504891 (National Center for Advancing Translational Sciences (NCATS), 2011).
# Protein sequences, listed by entry. Tags and fused reporters are not part of them.
# UniProt Q13526, whole entry: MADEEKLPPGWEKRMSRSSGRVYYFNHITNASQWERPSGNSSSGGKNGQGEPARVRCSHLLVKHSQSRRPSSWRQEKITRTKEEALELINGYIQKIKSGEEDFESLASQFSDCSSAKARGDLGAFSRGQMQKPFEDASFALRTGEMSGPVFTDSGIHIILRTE
# The entries are a selection whose mix differs from that of the whole data set. Inconclusive results are not listed. Calls of active or inactive are those of the source. The call rests on the fitted dose curve; in most records, active means well fitted inhibition curve with a large enough effect in the polarisation, with a control signal flat (not every such curve was filed as active); inconclusive means small, poorly fitted or top-dose-only effect, or effect the other way, or a change in a side signal; inactive means no such curve, though single readings can be large or run the other way; the % refers to the polarisation.
# Biological target: Peptidyl-prolyl cis-trans isomerase NIMA-interacting 1 (Homo sapiens) (UniProt Q13526)
# Test: qHTS Assay to Find Inhibitors of Pin1
# Settings: Pin1 FP peptide displacement, HiFluor488, 10 min; at 115 µM (top of the series)
# On the % scale 0 is the no-effect control and ±100 the full control effect.
row,SMILES,"activity, negative = inhibition"
1,CC1=NCCc2c1[nH]c1ccccc21.O=[N+]([O-])c1cc([N+](=O)[O-])c(O)c([N+](=O)[O-])c1,inactive: 20.1%
2,CCOC(=O)c1ccc(NP(C)(=O)Oc2cc(C)cc(C)c2)cc1 (stereo unspecified),inactive: 0.859%
3,Cc1cc(C)cc(OP(C)(=O)Nc2ccc(C)cc2C)c1 (stereo unspecified),inactive: -4.07%
4,COc1ccccc1OP(C)(=O)Nc1cccc(Br)c1 (stereo unspecified),inactive: 0.386%
5,Cc1ccc(C)c(NP(C)(=O)Oc2ccccc2)c1 (stereo unspecified),inactive: 0.88%
6,Cc1cc(C)cc(OP(C)(=O)Nc2ccccn2)c1 (stereo unspecified),inactive: -2.21%
7,CP(=O)(Nc1cccc(Br)c1)Oc1ccccc1 (stereo unspecified),inactive: -0.864%
8,O=[N+]([O-])c1cc([N+](=O)[O-])c(-n2nnc3ccccc32)c([N+](=O)[O-])c1,inactive: -2.63%
9,Cc1nc2ccc3ccccc3c2s1.O=[N+]([O-])c1cc([N+](=O)[O-])c(O)c([N+](=O)[O-])c1,inactive: -7.85%
10,O=[N+]([O-])c1cc([N+](=O)[O-])c(-c2cnn(-c3ccccc3)c2)c([N+](=O)[O-])c1,inactive: -0.607%
11,O=[N+]([O-])c1cc([N+](=O)[O-])c(Nc2nnnn2CCO)c([N+](=O)[O-])c1,inactive: 1.33%
12,CCCOc1ccc(NP(C)(=O)Oc2ccc(Cl)cc2)cc1 (stereo unspecified),inactive: -0.654%
13,CP(=O)(Nc1ccc(SC(F)(F)F)cc1)Oc1ccccc1 (stereo unspecified),inactive: 1.36%
14,CN1CCCCC1COC(=O)C1(O)c2ccccc2CCc2ccccc21 (stereo unspecified),inactive: -1.09%
15,COc1ccccc1OP(C)(=O)Nc1c(C)cccc1C (stereo unspecified),inactive: 0.619%
16,CP(=O)(Nc1ccccc1Br)Oc1ccccc1 (stereo unspecified),inactive: -3.96%
17,COc1ccccc1OP(C)(=O)Nc1ccccc1 (stereo unspecified),inactive: -1.78%
18,CP(=S)(Nn1cnnc1)Oc1ccccc1 (stereo unspecified),inactive: -3.33%
19,CP(=O)(NC(=O)Nc1ccccc1)Oc1ccccc1 (stereo unspecified),inactive: 7.72%
20,CCc1ccc(OP(C)(=O)N2CCN(c3ccc([N+](=O)[O-])cc3)CC2)cc1 (stereo unspecified),inactive: 2.84%
21,Cc1cc(C)cc(OP(C)(=O)Nc2ccc(SC(F)(F)F)cc2)c1 (stereo unspecified),inactive: -0.862%

row,SMILES,"activity, negative = inhibition"
1,CP(=O)(Nc1ccc(SC(F)(F)F)cc1)Oc1ccc(Cl)cc1 (stereo unspecified),inactive: -6.75%
2,Cc1cccc(C)c1OP(C)(=O)Nc1ccc(SC(F)(F)F)cc1 (stereo unspecified),inactive: 3.05%
3,CP(=O)(Oc1ccccc1)OC(c1ccccc1)C(F)(F)F (stereo unspecified),inactive: -11.9%
4,CP(=O)(Nc1ccccn1)Oc1ccc(Cl)cc1 (stereo unspecified),inactive: 0.414%
5,O=[N+]([O-])c1cc([N+](=O)[O-])c(O)c([N+](=O)[O-])c1.c1ccc(Oc2ccncc2)cc1,inactive: -3.39%
6,CCOC(=O)c1ccc(NP(C)(=O)Oc2ccc(OC)cc2)cc1 (stereo unspecified),inactive: 4.15%
7,CCOP(C)(=S)SCC(=O)NC(C)C(=O)O (stereo unspecified),inactive: -10.5%
8,CCN(CC)CCCOC(=O)C(O)(c1ccccc1)c1ccccc1,inactive: 3.05%
9,O=[N+]([O-])c1ccc2c(c1)C=Nc1ccccc1O2,inactive: 11.2%
10,Cc1cccc(C)c1OP(C)(N)=O (stereo unspecified),inactive: -1.83%
11,O=[N+]([O-])c1cc([N+](=O)[O-])c(Nc2cccnc2)c([N+](=O)[O-])c1,inactive: -10.3%
12,Cc1cc(C)cc(OP(C)(N)=O)c1 (stereo unspecified),inactive: -9.49%
13,COc1ccccc1OP(C)(=O)Nc1cc(Cl)ccc1C (stereo unspecified),inactive: -11.3%
14,COc1ccc(OP(C)(=O)Nc2cccc(F)c2)cc1 (stereo unspecified),inactive: -2.83%
15,COc1ccccc1OP(C)(=O)Nc1ccc(C)cc1 (stereo unspecified),inactive: 1.19%
16,Cc1ccc(NP(C)(=O)Oc2ccccc2)c(C)c1 (stereo unspecified),inactive: -3.74%
17,CCOC(=O)c1ccc(NP(C)(=O)Oc2ccccc2)cc1 (stereo unspecified),inactive: 2.4%
18,COc1ccccc1OP(C)(=O)Nc1ccc(C)c(C)c1 (stereo unspecified),inactive: -0.324%
19,COc1ccc(OP(C)(=O)Nc2ccccc2Br)cc1 (stereo unspecified),inactive: 1.66%
20,CP(=O)(Nc1ccc(Cl)cc1Cl)Oc1ccccc1 (stereo unspecified),inactive: -0.345%
21,CCCCCCCCCCCCCCCC1C[N+](C)(C)CCOP(C)(=O)O1 (stereo unspecified),inactive: 16.8%

row,SMILES,"activity, negative = inhibition"
1,CP(=O)(OCCOc1ccccc1)OCCOc1ccccc1,inactive: -5.73%
2,CN(C)CCOC(=O)C(O)(c1ccccc1)C1CCCC1 (stereo unspecified),inactive: -8.93%
3,COc1ccccc1OP(C)(=O)Nc1ccc(Br)cc1 (stereo unspecified),inactive: -7.12%
4,CP(=O)(Nc1ccccn1)Oc1ccccc1 (stereo unspecified),inactive: -10.1%
5,COc1ccccc1OP(C)(=O)Nc1ccc(C)cc1C (stereo unspecified),inactive: 5.05%
6,CCc1ccc(OP(C)(=O)O)cc1,inactive: -0.209%
7,Cc1c(NP(C)(=O)Oc2ccc(C(C)C)cc2)c(=O)n(-c2ccccc2)n1C (stereo unspecified),inactive: -3.73%
8,O=[N+]([O-])c1cc([N+](=O)[O-])c(Nc2ccccn2)c([N+](=O)[O-])c1,inactive: 0.161%
9,COc1ccccc1OP(C)(=O)Nc1c(C)n(C)n(-c2ccccc2)c1=O (stereo unspecified),inactive: 4.3%
10,O=C(OCCCN1CCCC1)C(O)(c1ccccc1)C1CCCCC1 (stereo unspecified),inactive: 2.25%
11,CP(=O)(Oc1ccccc1)N1CCOC1=O (stereo unspecified),inactive: -6.03%
12,CCc1ccc(OP(C)(=O)Nc2cccnc2)cc1 (stereo unspecified),inactive: -10.2%
13,CCN(CC)CC(O)COC(=O)C(O)(c1ccccc1)C1CCCCC1 (stereo unspecified),inactive: -0.561%
14,COc1ccc(OP(C)(=O)Nc2ccc(Br)cc2)cc1 (stereo unspecified),inactive: 7.17%
15,CN(C)C(=O)c1c([N+](=O)[O-])cc([N+](=O)[O-])cc1[N+](=O)[O-],inactive: -2.12%
16,COc1ccccc1OP(C)(=O)Nc1ccccc1Br (stereo unspecified),inactive: -5.32%
17,CC(C)(C)c1ccc(OP(C)(=O)O)cc1,inactive: -5.96%
18,CP(=O)(Nc1ccc(Cl)cc1)Oc1ccc(F)cc1 (stereo unspecified),inactive: -2.67%
19,CCOC(=O)c1ccc(NP(C)(=O)Oc2ccc(Cl)cc2)cc1 (stereo unspecified),inactive: -1.71%
20,CP(=O)(OC12CC3CC(CC(C3)C1)C2)OC12CC3CC(CC(C3)C1)C2,inactive: 1.1%
21,Nc1ccc2c(ccc3cccnc32)n1.O=[N+]([O-])c1cc([N+](=O)[O-])c(O)c([N+](=O)[O-])c1,inactive: 3.98%

row,SMILES,"activity, negative = inhibition"
1,CN(C)CCOC(=O)C(O)(c1ccccc1)C1CCCCC1 (stereo unspecified),inactive: 0.604%
2,COc1ccc(NP(C)(=O)Oc2ccccc2OC)cc1 (stereo unspecified),inactive: 4.63%
3,COc1ccc(OP(C)(=O)Nc2cccc(Br)c2)cc1 (stereo unspecified),inactive: 0.401%
4,Cc1c(C(c2ccc3c(c2)OCO3)c2c(C)n(C)n(-c3ccccc3)c2=O)c(=O)n(-c2ccccc2)n1C.O=[N+]([O-])c1cc([N+](=O)[O-])c(O)c([N+](=O)[O-])c1,inactive: -4.99%
5,O=[N+]([O-])c1ccc(OP2(=O)COCCO2)cc1 (stereo unspecified),inactive: 2.86%
6,Cc1cc(-c2cccc3ccccc23)c(C)cn1.O=[N+]([O-])c1cc([N+](=O)[O-])c(O)c([N+](=O)[O-])c1,inactive: -1.94%
7,CCOP(C)(=S)SCC(=O)NC(C)(CC)C(=O)O (stereo unspecified),inactive: 1.22%
8,CP(=O)(Nc1ccc(SC(F)(F)F)cc1)Oc1ccc(F)cc1 (stereo unspecified),inactive: -11%
9,Cc1ccccc1NP(C)(=O)Nc1ccccc1C,inactive: -9.43%
10,CP(=O)(Nc1ccc2c(c1)OCCO2)Oc1ccccc1 (stereo unspecified),inactive: 0.241%
11,CP(=O)(Nc1ccccc1F)Oc1ccccc1 (stereo unspecified),inactive: 1.15%
12,O=C(OCCN1CCN(CCOCc2ccccc2)CC1)C(O)(c1ccccc1)c1ccccc1,inactive: -1.1%
13,CCOC(=O)c1ccc(NP(C)(=O)Oc2ccc(F)cc2)cc1 (stereo unspecified),inactive: 3.24%
14,COc1ccc(OP(C)(=O)Nc2ccc(SC(F)(F)F)cc2)cc1 (stereo unspecified),inactive: -5.58%
15,CP(=O)(Nc1ccccc1)Oc1ccc(F)cc1 (stereo unspecified),inactive: -8.19%
16,CCCCCOc1ccc(NP(C)(=O)Oc2ccc(Cl)cc2Cl)cc1 (stereo unspecified),inactive: 2.91%
17,Cc1c([N+](=O)[O-])cc([N+](=O)[O-])c(Br)c1[N+](=O)[O-],inactive: 17.4%
18,CCN(CC)CCCOC(=O)C(O)(c1ccccc1)C1CCCCC1 (stereo unspecified),inactive: 5.27%
